By UniProt entry, the sequences of proteins in these tests, tags left out.
UniProt P19643, whole entry: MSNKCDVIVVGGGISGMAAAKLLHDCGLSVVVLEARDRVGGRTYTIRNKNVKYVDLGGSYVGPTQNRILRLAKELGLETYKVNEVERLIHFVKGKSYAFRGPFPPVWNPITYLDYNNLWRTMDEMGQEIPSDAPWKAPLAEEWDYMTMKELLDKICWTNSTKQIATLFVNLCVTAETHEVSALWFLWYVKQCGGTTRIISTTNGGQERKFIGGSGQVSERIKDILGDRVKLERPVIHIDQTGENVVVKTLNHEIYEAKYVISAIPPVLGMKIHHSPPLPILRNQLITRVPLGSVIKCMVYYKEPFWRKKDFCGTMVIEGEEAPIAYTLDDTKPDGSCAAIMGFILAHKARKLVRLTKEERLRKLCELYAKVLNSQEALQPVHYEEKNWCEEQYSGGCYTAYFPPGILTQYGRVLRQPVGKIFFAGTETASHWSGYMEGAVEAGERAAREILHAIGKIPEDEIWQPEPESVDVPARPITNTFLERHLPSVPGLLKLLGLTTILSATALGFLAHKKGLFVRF
UniProt P21396, whole entry: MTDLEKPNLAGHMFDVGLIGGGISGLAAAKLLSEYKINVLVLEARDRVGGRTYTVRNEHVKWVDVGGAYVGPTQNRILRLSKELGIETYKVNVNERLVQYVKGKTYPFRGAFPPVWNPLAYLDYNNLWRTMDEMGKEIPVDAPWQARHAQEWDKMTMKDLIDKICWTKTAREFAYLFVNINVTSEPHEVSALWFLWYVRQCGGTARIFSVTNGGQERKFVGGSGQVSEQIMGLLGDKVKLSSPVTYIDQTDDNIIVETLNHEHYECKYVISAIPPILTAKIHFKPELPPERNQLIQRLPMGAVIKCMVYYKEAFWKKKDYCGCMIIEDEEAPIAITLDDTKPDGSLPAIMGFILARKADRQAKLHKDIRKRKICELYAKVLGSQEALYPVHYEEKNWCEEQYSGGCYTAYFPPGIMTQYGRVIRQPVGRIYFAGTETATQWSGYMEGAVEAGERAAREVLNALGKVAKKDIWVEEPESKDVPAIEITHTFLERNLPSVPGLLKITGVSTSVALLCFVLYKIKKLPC

According to patent US9034303B2, “Neuroprotective and neuro-restorative iron chelators and monoamine oxidase inhibitors and uses thereof” (priority 2010, dated 2015):

Columns and labels:
[1] = target: rat brain MAO-B (Rattus norvegicus (Rat), UniProt P19643); assay: In vitro inhibition of rat brain MAO-B (14C-PEA substrate); format: biochemical; conditions: for Inhibition of brain MAO-B (%): rat brain extracts
Protocol: (§1) Rats are decapitated and the brains quickly taken into a weighted ice-cold sucrose buffer (0.32 M) and their weights determined. All subsequent procedures are performed at 0° C. The brains are homogenized in 0.32 M sucrose (one part tissue to 20 parts sucrose) in a Teflon glass homogenizer followed by the addition of sucrose buffer to a final concentration of 10% homogenate. The homogenates are centrifuged at 600 g for 15 min. The supernatant fractions are taken out and centrifuged at 4500 g for 30 min, the pellet diluted in 0.32 M sucrose buffer and kept frozen for later assaying of MAO.
(§2) MAO-A and MAO-B activities are determined in rat brain homogenate in vitro following incubation with varying concentrations of the test compounds.
The in vitro inhibitory activity of the compounds is tested against rat brain MAO-B. The test compounds are added to buffer containing 10^−7 M clorgylin and are incubated with the tissue homogenate for 30 or 60 min at 37° C. before addition of ^14C-PEA.
The test compound was added to a suitable dilution of the enzyme preparation (70 μg protein for MAO-B and 150 μg MAO-A assay) in 0.1 M phosphate buffer (pH 7.4). The mixture was incubated together with […], a specific inhibitor of MAO-B (for determination of MAO-A) or 0.05 M clorgylin, a specific inhibitor of MAO-A (for determination of MAO-B). […] The reaction was stopped with 2 M ice-cold citric acid, and the metabolites were extracted and determined by liquid-scintillation counting in cpm units.
The reaction was stopped with 2 M ice-cold citric acid, and the metabolites were extracted with ethyl acetate and levels of radioactivity were determined by liquid-scintillation counting in CPM units. All assays were performed at least in duplicate and outcome was expressed as a mean±SEM. Data were analyzed by a Student's t test. […]
MAO-A and MAO-B activity was measured using radioactive substrates. […] The metabolites were extracted to toluene and read in a β-counter. […]

[2] = target: rat brain MAO-A (Rattus norvegicus (Rat), UniProt P21396); assay: In vitro inhibition of rat brain MAO-A (14C-5-HT substrate); format: biochemical; conditions: for Inhibition of brain MAO-A (%): rat brain extracts
Protocol: as §1, with “MAO. Protein concentration is determined with Bradford reagent at λ=595 nm, using BSA as a standard.” for “MAO.”
as §2
The activity of MAO-A and MAO-B was determined by the adapted method of Tipton & Youdim (Tipton K F, O'Sullivan J, Youdim M B, 1983, Encyclopedia of Neuroscience, 2004, G. Adelman and B. H. Smith, Elsevier). The test compound was added to a suitable dilution of the enzyme preparation (70 μg protein for MAO-B and 150 μg MAO-A assay) in 0.1 M phosphate buffer (pH 7.4). The mixture was incubated together with […], a specific inhibitor of MAO-B (for determination of MAO-A) or 0.05 M clorgylin, a specific inhibitor of MAO-A (for determination of MAO-B). Incubation was carried for 0.5 or 1 h at 37° C. before addition of ^14C-5-hydroxytryptamine binoxalate (5-HT) (100 or 400 μM) for determination of MAO-A, or ^14C-phenylethylamine (^14C-PEA) 100 or 400 μM for determination of MAO-B, and incubation continued for 30 min or 20 min, respectively. The reaction was stopped with 2 M ice-cold citric acid, and the metabolites were extracted and determined by liquid-scintillation counting in cpm units. […]
MAO-A and MAO-B activity was measured using radioactive substrates. The substrate for MAO-A was 5 HT and for MAO-B was PEA. […] The metabolites were extracted to toluene and read in a β-counter. […]

C#CCN[C@@H]1CCc2ccccc21 [Rasagiline, reference compound]
Inhibition of brain MAO-B (%) ([1]; concentration 0.001 mM): 99.5% | Inhibition of brain MAO-B (%) ([1]; concentration 1.0 mM): 99.7% | Inhibition of rat brain MAO-B in vitro (in words) ([1]; rat brain): inhibits MAO-B very strongly | Inhibition of brain MAO-A (%) ([2]; concentration 0.001 mM): 47.4% | Inhibition of brain MAO-A (%) ([2]; concentration 1.0 mM): 99.8% | Inhibition of rat brain MAO-A in vitro (in words) ([2]; rat brain): MAO-A more poorly
